Assay results reported in PMC4975651 (Molecular cell, 2016).

Test system: GST-ZMYND8-PBP
Assay: Peptide pull-down assay, GST-ZMYND8-PBP
Type: binding, human
Conditions: biotinylated peptides; H2Aac, H2Bac, H3ac and H4ac peptides tested

Q: For “H3K14ac: acetylated H3K14 histone peptide”, which “interaction with ZMYND8-PBP (pull-down)” value is on record?
A: specifically interacted
